Earlier results in patent US20150164812A1, “Porous Tablets As Carriers For Liquid Formulations” (Veloxis Pharmaceuticals A/S, priority 2004, published 2015).

Settings: Table 1 Poorly-Soluble Drug Candidates

SMILES: CCC(=O)N(c1ccccc1)C1CCN(CCc2ccccc2)CC1
- Solubility In Water: Sparingly

Some compounds may have been tested in ways that are not shown here.
